As usually defined, the IC50 is the midpoint of a concentration-inhibition curve. Read a low IC50 as greater potency in that assay.

In US12410192B2, “Compound for inhibiting and inducing degradation of EGFR kinase” (BEIJING TIDE PHARMACEUTICAL CO., LTD., priority 2019, dated 2025) one finds IC50 data, which are given here for two substances.

For the test, the target named is EGFR^L858R/T790M/C797S (Homo sapiens (Human), UniProt P00533, C797S/L858R/T790M). Put plainly: Assay of inhibitory activity on EGFR (HTRF kinase assay). It is filed as biochemical. The following applies: mutant EGFR kinase. As for the experimental part:
Formula of inhibition rate (%): […]
The nonlinear regression curve (dose response-variable slope) between the value of inhibition rate (%) and the logarithm of compound concentration was fitted with graphpad prism 8.0, the effect dose curve of compound was drawn, and IC50 value was calculated.
(In general: Time-resolved FRET reads energy transfer from a long-lived donor to a nearby acceptor.)

For the substance “3-(1-oxo-4-(4-(4-(((R,E)-1^1,2^6,7-trimethyl-3-oxo-5^2,5^3-dihydro-1^1H,5^1H-11-oxa-4-aza-5 (2,1)-benzo[d]imidazole-2 (2,4)-pyridine-1 (4,5)-pyrazolecyclododecan-5^6-yl)methyl)piperazin-1-yl)butyl)isoindol-2-yl)piperidine-2,6-dione [Compound D1]”, the midpoint of inhibition, the IC50, lay at 4.53 nM. That is a single-digit nanomolar value.

Take “3-(1-oxo-4-(5-(4-(((R,E)-1^1,2^6,7-trimethyl-3-oxo-5^2,5^3-dihydro-1^1H,5^1H-11-oxa-4-aza-5 (2,1)-benzo[d]imidazole-2 (2,4)-pyridine-1 (4,5)-pyrazolecyclododecan-5^6-yl)methyl)piperazin-1-yl) pent-1-yn-1-yl)isoindol-2-yl)piperidine-2,6-dione [Compound D2]”: the IC50 stood at 3.84 nM.
